The values below are quoted from earlier work in patent US12201712B2, “Method for dyeing keratinous material, comprising the use of an organosilicon compound, a phosphoric acid ester and a dyeing compound” (Henkel AG & Co. KGaA, priority 2020, dated 2025).

For this data set the following is noted: 25° C.

Take “3,4,5,6-tetrachloro-2-(1,4,5,8-tetrabromo-6-hydroxy-3-oxoxanthen-9-yl)benzoic acid [Acid Red 92]”: the solubility in water entry is reported as “greater than 10 g/L”.
